{
  "source": "paper PMC10293653",
  "about": "(International Journal of Biological Macromolecules, 2023)",
  "target": "Mpro of SARS-CoV-2 (Severe acute respiratory syndrome coronavirus 2, UniProt P0DTD1)",
  "assay": "Main protease",
  "assay_type": "biochemical",
  "settings": "5uM",
  "data": [
    {"smiles": "CC(C)(C)OC(=O)Nc1cccn([C@@H](CC2CC2)C(=O)N[C@@H](C[C@@H]2CCNC2=O)C(=O)C(=O)NCc2ccccc2)c1=O", "note": "[Mpro-13b]", "values": [
      {"measurement": "inhibition of Mpro", "value": "> 80", "unit": "%"}
    ]}
  ]
}
